Measurements: patent US9956187B2 (priority 2014, dated 2018)

The chains behind the UniProt entries cited, without tags or fusion partners. Where a name states a change or a piece, a line headed by the entry shows the natural chain unless it says otherwise.
UniProt P41145: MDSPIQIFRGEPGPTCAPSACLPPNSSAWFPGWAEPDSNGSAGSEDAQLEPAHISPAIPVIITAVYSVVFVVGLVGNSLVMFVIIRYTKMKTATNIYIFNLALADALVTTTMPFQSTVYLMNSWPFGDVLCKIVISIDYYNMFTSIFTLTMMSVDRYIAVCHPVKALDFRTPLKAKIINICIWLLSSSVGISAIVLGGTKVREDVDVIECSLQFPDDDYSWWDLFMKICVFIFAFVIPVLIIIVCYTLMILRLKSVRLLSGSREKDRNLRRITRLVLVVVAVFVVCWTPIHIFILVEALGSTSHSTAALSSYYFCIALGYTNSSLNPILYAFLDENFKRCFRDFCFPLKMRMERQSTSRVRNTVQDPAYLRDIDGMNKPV

Target: kappa opioid receptor (Homo sapiens, UniProt P41145)
Format: biochemical
Set-up: purchased Millipore (Billerica, Mass.); host or cells: Chem-5 mammalian cell line

COC(=O)[C@@H]1C[C@H](OC(C)=O)C(=O)[C@H]2[C@@]1(C)CC[C@H]1C(=O)O[C@H](c3ccoc3)C[C@]21C [salvinorin A]
G protein activation in the presence of kappa receptor: concentration dependently activate the G protein
